# Membrane permeability of cyclic peptides

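Lipid, pH, incubation time, direction and concentration are not recorded in the data file. Other peptides of the study may be missing here. Entries at the database's floor value (log10 P of -10) are not listed.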

PAMPA is the parallel artificial membrane permeability assay, which has no cells and reads passive diffusion.
Permeability is given as log10 of P in cm/s; higher (less negative) is more permeable.

CC(=O)N1CCC[C@H]1C(=O)N(C)[C@@H](CC(C)C)C(=O)N[C@@H]1C(=O)N(C)[C@@H](CC(C)C)C(=O)N(C)[C@@H](CC(C)C)C(=O)N(C)[C@H](CC(C)C)C(=O)N(C)[C@H](C)C(=O)N[C@@H](CC(C)C)C(=O)N2CCC[C@@H]2C(=O)O[C@@H]1C is reported with PAMPA -5.50 (log10 cm/s). CC(=O)N1CCC[C@H]1C(=O)N(C)[C@H](CC(C)C)C(=O)N[C@@H]1C(=O)N(C)[C@@H](CC(C)C)C(=O)N(C)[C@H](CC(C)C)C(=O)N[C@H](CC(C)C)C(=O)N(C)[C@@H](C)C(=O)N[C@H](CC(C)C)C(=O)N2CCC[C@@H]2C(=O)O[C@@H]1C is reported with PAMPA -5.92 (log10 cm/s). For CC(=O)N1CCC[C@@H]1C(=O)N(C)[C@@H](CC(C)C)C(=O)N[C@@H]1C(=O)N[C@@H](CC(C)C)C(=O)N(C)[C@H](CC(C)C)C(=O)N[C@H](CC(C)C)C(=O)N(C)[C@H](C)C(=O)N[C@@H](CC(C)C)C(=O)N2CCC[C@@H]2C(=O)O[C@@H]1C the data give PAMPA -5.05 (log10 cm/s). CC(=O)N1CCC[C@H]1C(=O)N(C)[C@H](CC(C)C)C(=O)N[C@@H]1C(=O)N[C@H](CC(C)C)C(=O)N(C)[C@H](CC(C)C)C(=O)N[C@@H](CC(C)C)C(=O)N(C)[C@H](C)C(=O)N[C@H](CC(C)C)C(=O)N2CCC[C@@H]2C(=O)O[C@@H]1C is reported with PAMPA -5.33 (log10 cm/s).

Listed for CC(=O)N1CCC[C@H]1C(=O)N(C)[C@@H](CC(C)C)C(=O)N[C@@H]1C(=O)N[C@@H](CC(C)C)C(=O)N(C)[C@@H](CC(C)C)C(=O)N[C@H](CC(C)C)C(=O)N[C@H](C)C(=O)N[C@@H](CC(C)C)C(=O)N2CCC[C@@H]2C(=O)O[C@@H]1C: PAMPA -5.24 (log10 cm/s). CC(=O)N1CCC[C@H]1C(=O)N(C)[C@H](CC(C)C)C(=O)N[C@@H]1C(=O)N[C@H](CC(C)C)C(=O)N(C)[C@@H](CC(C)C)C(=O)N(C)[C@H](CC(C)C)C(=O)N(C)[C@H](C)C(=O)N[C@H](CC(C)C)C(=O)N2CCC[C@H]2C(=O)O[C@@H]1C has PAMPA -5.30 (log10 cm/s). Listed for CC(=O)N1CCC[C@H]1C(=O)N(C)[C@H](CC(C)C)C(=O)N[C@@H]1C(=O)N[C@@H](CC(C)C)C(=O)N(C)[C@@H](CC(C)C)C(=O)N(C)[C@H](CC(C)C)C(=O)N(C)[C@H](C)C(=O)N[C@H](CC(C)C)C(=O)N2CCC[C@@H]2C(=O)O[C@@H]1C: PAMPA -5.48 (log10 cm/s). Listed for CC(=O)N1CCC[C@H]1C(=O)N(C)[C@@H](CC(C)C)C(=O)N[C@@H]1C(=O)N[C@H](CC(C)C)C(=O)N(C)[C@H](CC(C)C)C(=O)N(C)[C@H](CC(C)C)C(=O)N[C@H](C)C(=O)N[C@H](CC(C)C)C(=O)N2CCC[C@@H]2C(=O)O[C@@H]1C: PAMPA -6.51 (log10 cm/s).

The entry for CC(=O)N1CCC[C@@H]1C(=O)N(C)[C@@H](CC(C)C)C(=O)N[C@@H]1C(=O)N[C@@H](CC(C)C)C(=O)N[C@H](CC(C)C)C(=O)N(C)[C@H](CC(C)C)C(=O)N(C)[C@H](C)C(=O)N[C@@H](CC(C)C)C(=O)N2CCC[C@@H]2C(=O)O[C@@H]1C lists PAMPA -6.69 (log10 cm/s). CC(=O)N1CCC[C@H]1C(=O)N[C@@H]1C(=O)N[C@H](CC(C)C)C(=O)N(C)[C@@H](CC(C)C)C(=O)N[C@H](CC(C)C)C(=O)N(C)[C@H](CC(C)C)C(=O)N(C)[C@H](C)C(=O)N[C@@H](CC(C)C)C(=O)N2CCC[C@@H]2C(=O)O[C@@H]1C has PAMPA -5.22 (log10 cm/s). CC(=O)N1CCC[C@H]1C(=O)N(C)[C@H](CC(C)C)C(=O)N[C@@H]1C(=O)N[C@@H](CC(C)C)C(=O)N(C)[C@H](CC(C)C)C(=O)N(C)[C@H](CC(C)C)C(=O)N[C@H](C)C(=O)N[C@@H](CC(C)C)C(=O)N2CCC[C@@H]2C(=O)O[C@@H]1C has PAMPA -5.33 (log10 cm/s). CC(=O)N1CCC[C@@H]1C(=O)N(C)[C@H](CC(C)C)C(=O)N[C@@H]1C(=O)N(C)[C@@H](CC(C)C)C(=O)N(C)[C@H](CC(C)C)C(=O)N(C)[C@@H](CC(C)C)C(=O)N[C@@H](C)C(=O)N[C@H](CC(C)C)C(=O)N2CCC[C@H]2C(=O)O[C@@H]1C has PAMPA -5.94 (log10 cm/s).

CC(=O)N[C@@H]1C(=O)N2CCC[C@H]2C(=O)N(C)[C@H](CC(C)C)C(=O)N(C)[C@H](CC(C)C)C(=O)N(C)[C@@H](CC(C)C)C(=O)N(C)[C@@H](CC(C)C)C(=O)N(C)[C@H](C)C(=O)N[C@@H](CC(C)C)C(=O)N2CCC[C@@H]2C(=O)O[C@@H]1C has PAMPA -5.38 (log10 cm/s). For CC(=O)N1CCC[C@H]1C(=O)N(C)[C@H](CC(C)C)C(=O)N[C@@H]1C(=O)N[C@@H](CC(C)C)C(=O)N[C@H](CC(C)C)C(=O)N(C)[C@@H](CC(C)C)C(=O)N(C)[C@@H](C)C(=O)N[C@@H](CC(C)C)C(=O)N2CCC[C@@H]2C(=O)O[C@@H]1C the data give PAMPA -5.37 (log10 cm/s). For CC(=O)N1CCC[C@@H]1C(=O)N(C)[C@H](CC(C)C)C(=O)N[C@@H]1C(=O)N(C)[C@@H](CC(C)C)C(=O)N[C@@H](CC(C)C)C(=O)N(C)[C@@H](CC(C)C)C(=O)N(C)[C@H](C)C(=O)N[C@H](CC(C)C)C(=O)N2CCC[C@H]2C(=O)O[C@@H]1C the data give PAMPA -5.91 (log10 cm/s). CC(=O)N1CCC[C@@H]1C(=O)N(C)[C@@H](CC(C)C)C(=O)N[C@@H]1C(=O)N(C)[C@H](CC(C)C)C(=O)N(C)[C@@H](CC(C)C)C(=O)N(C)[C@@H](CC(C)C)C(=O)N(C)[C@H](C)C(=O)N[C@H](CC(C)C)C(=O)N2CCC[C@H]2C(=O)O[C@@H]1C is reported with PAMPA -5.36 (log10 cm/s).

The 2 lowest values of PAMPA among the entries above:

SMILES	PAMPA (log10 cm/s)
CC(=O)N1CCC[C@@H]1C(=O)N(C)[C@@H](CC(C)C)C(=O)N[C@@H]1C(=O)N[C@@H](CC(C)C)C(=O)N[C@H](CC(C)C)C(=O)N(C)[C@H](CC(C)C)C(=O)N(C)[C@H](C)C(=O)N[C@@H](CC(C)C)C(=O)N2CCC[C@@H]2C(=O)O[C@@H]1C	-6.69
CC(=O)N1CCC[C@H]1C(=O)N(C)[C@@H](CC(C)C)C(=O)N[C@@H]1C(=O)N[C@H](CC(C)C)C(=O)N(C)[C@H](CC(C)C)C(=O)N(C)[C@H](CC(C)C)C(=O)N[C@H](C)C(=O)N[C@H](CC(C)C)C(=O)N2CCC[C@@H]2C(=O)O[C@@H]1C	-6.51

Source: CycPeptMPDB (Li et al. 2023), which took these values from Kelly et al. 2021, doi:10.1021/jacs.0c06115.